Broadly, the inhibition is the percentage by which the read-out fell short of the control.

In experiment [1] the test system is Mus musculus. The experiment can be described thus: Antiinflammatory activity in carrageenan-induced BALB/c mouse peritonitis model assessed as reduction in number of neutrophils in peritoneal fluid at 80 mg/kg, po pretreated for 1 hr followed by carrageenan challenge measured after 4 hrs by hematoxylin and eosin staining-based assay relative to ….
Experiment [2] has as its system Splenocyte. Nature of the experiment: Antiinflammatory activity in BALB/c mouse splenocytes assessed as inhibition of concanavalin A-induced IL-4 level after 48 hrs by ELISA. Background: In an ELISA, binding on a coated surface is turned into a signal by an enzyme label.
Experiment [3] deals with Splenocyte. Nature of the experiment: Immunomodulatory activity in BALB/c mouse splenocytes assessed as reduction in cellular calcineurin phosphatase activity at 1 to 12 uM after 72 hrs by colorimetric assay.
For experiment [4], the system named is Peritoneal macrophage. The experiment can be described thus: Antiinflammatory activity in BALB/c mouse peritoneal macrophages assessed as inhibition of LPS/IFNgamma-induced IL-1beta level after 24 hrs by ELISA.
Experiment [5] has as its system Mus musculus. The experiment can be described thus: Antiinflammatory activity in carrageenan-induced BALB/c mouse peritonitis model assessed as reduction in number of neutrophils in peritoneal fluid at 20 mg/kg, po pretreated for 1 hr followed by carrageenan challenge measured after 4 hrs by hematoxylin and eosin staining-based assay relative to ….
The test system of experiment [6] is Splenocyte. The experiment can be described thus: Antiinflammatory activity in BALB/c mouse splenocytes assessed as inhibition of concanavalin A-induced IL-17A level after 48 hrs by ELISA.
For experiment [7], the system named is Splenocyte. The experiment can be described thus: Immunomodulatory activity in BALB/c mouse splenocytes assessed as inhibition of mouse anti-CD3/anti-CD28-induced lymphocyte proliferation by measuring [3H]-thymidine uptake after 48 hrs by scintillation counting analysis.
For experiment [8], the system named is Splenocyte. The experiment can be described thus: Antiinflammatory activity in BALB/c mouse splenocytes assessed as inhibition of concanavalin A-induced IFN-gamma level after 48 hrs by ELISA.
In experiment [9] the test system is Splenocyte. Nature of the experiment: Antiinflammatory activity in BALB/c mouse splenocytes assessed as inhibition of concanavalin A-induced IL-2 level after 48 hrs by ELISA.
Experiment [10] has as its system Splenocyte. The experiment can be described thus: Antiinflammatory activity in BALB/c mouse splenocytes assessed as inhibition of concanavalin A-induced IL-10 level after 48 hrs by ELISA.
Experiment [11] relates to J774. Nature of the experiment: Antiinflammatory activity in BALB/c mouse J774 cells assessed as inhibition of LPS-induced COX2 mRNA level after 24 hrs by qRT-PCR method.
The test system of experiment [12] is Splenocyte. The experiment can be described thus: Cell cycle arrest in concanavalin A-stimulated BALB/c mouse splenocytes assessed as accumulation at G0/G1 phase at 2.5 to 10 uM after 48 hrs by propidium iodide staining-based flow cytometry. (In general: Flow cytometry measures light scatter and fluorescence of single cells or particles in a stream.)
Experiment [13] relates to Peritoneal macrophage. The experiment can be described thus: Antiinflammatory activity in BALB/c mouse peritoneal macrophages assessed as inhibition of LPS/IFNgamma-induced TNF-alpha secretion at 10 uM after 4 hrs by ELISA.
In experiment [14] the test system is Peritoneal macrophage. Nature of the experiment: Antiinflammatory activity in BALB/c mouse peritoneal macrophages assessed as inhibition of LPS/IFNgamma-induced IL-6 level after 4 hrs by ELISA.
Experiment [15] relates to Peritoneal macrophage. Nature of the experiment: Antiinflammatory activity in BALB/c mouse peritoneal macrophages assessed as inhibition of LPS/IFNgamma-induced nitric oxide production after 24 hrs by Griess method.
The subject of experiment [16] is J774. The experiment can be described thus: Antiinflammatory activity in BALB/c mouse J774 cells assessed as inhibition of LPS-induced PGE2 biosynthesis after 24 hrs by enzyme immunoassay.

The source made the active and inactive calls. The rule behind the calls is not given here.

In the case of `CC(/C=N/Nc1ccc([N+](=O)[O-])cc1)=N\NC(=O)c1cc([N+](=O)[O-])cc([N+](=O)[O-])c1`, the inhibition was 30.6% in the experiment on Mus musculus [1]; “Dose-dependent effect” with Splenocyte [2]; “Dose-dependent effect” with Peritoneal macrophage [4]; 21.4% with Mus musculus [5]; “Dose-dependent effect” in the experiment on Splenocyte [6]; “Dose-dependent effect” in the experiment on Splenocyte [7]. Besides, the inhibition result with Splenocyte [8], with Splenocyte [9], with Splenocyte [10], in the experiment with J774 [11], with Peritoneal macrophage [14] and in the experiment with Peritoneal macrophage [15] was “Dose-dependent effect” in each case. Further, the inhibition result in the experiment with J774 [16] is “Dose-dependent effect”. Further, the outcome with Splenocyte [3] and with Splenocyte [12] was Active. The inhibition entry in the experiment on Peritoneal macrophage [13] was “Active”.
